Assay results from ChEMBL document CHEMBL3407396, “Discovery of non-oxime reactivators using an in silico pharmacophore model of reactivators for DFP-inhibited acetylcholinesterase” (2015).

Protein sequences, listed by entry. Tags and fused reporters are not part of them. Lines headed by an entry give the natural chain unless they say otherwise; changes in a name come on top.
UniProt O42275: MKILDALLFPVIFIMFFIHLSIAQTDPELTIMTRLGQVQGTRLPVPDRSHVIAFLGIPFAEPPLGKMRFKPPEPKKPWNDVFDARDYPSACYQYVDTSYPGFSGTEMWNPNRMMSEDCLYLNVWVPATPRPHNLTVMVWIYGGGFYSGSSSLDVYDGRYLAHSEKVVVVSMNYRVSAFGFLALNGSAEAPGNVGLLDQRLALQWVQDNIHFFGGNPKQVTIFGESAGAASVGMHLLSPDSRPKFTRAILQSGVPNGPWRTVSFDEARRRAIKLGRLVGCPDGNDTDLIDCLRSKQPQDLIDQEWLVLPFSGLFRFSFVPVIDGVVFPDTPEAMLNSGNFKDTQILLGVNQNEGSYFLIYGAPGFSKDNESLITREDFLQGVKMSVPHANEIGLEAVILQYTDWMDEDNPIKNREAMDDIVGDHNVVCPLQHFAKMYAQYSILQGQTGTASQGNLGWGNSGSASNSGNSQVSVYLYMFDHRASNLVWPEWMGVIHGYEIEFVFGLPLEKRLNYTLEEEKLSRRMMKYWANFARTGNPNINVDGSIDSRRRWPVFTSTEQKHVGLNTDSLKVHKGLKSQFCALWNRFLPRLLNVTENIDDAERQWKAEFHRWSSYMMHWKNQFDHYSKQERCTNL

How the values were obtained:
[1] = target: Acetylcholinesterase (Electrophorus electricus) (UniProt O42275); assay: Reactivation of diisopropylfluorophosphate-inhibited electric eel AChE using acetylcholine as substrate assessed as change in optical density per minute for 60 mins by UV-VIS spectrophotometry relative to pralidoxime; set-up: scale not given: the % may be the effect or the level left
[2] = target: Acetylcholinesterase (Electrophorus electricus) (UniProt O42275); assay: Reactivation of diisopropylfluorophosphate-inhibited electric eel AChE using acetylcholine as substrate assessed as change in optical density per minute for 60 mins by UV-VIS spectrophotometry

CC(=O)c1ccc(S(=O)(=O)c2ccccc2)cc1
Activity [1]: 20.9%
Kr [2]: 12.5 mmol/min

CS(=O)(=O)SCCOC(=O)Nc1ccccc1
Activity [1]: 56.7%
Kr [2]: 4.6 mmol/min

COc1cc(NCCCCN)c2nccc(C)c2c1
Activity [1]: 25.8%
Kr [2]: 10.1 mmol/min

O=C1CC(NCC(SP(=O)(O)O)c2ccccc2)C(=O)N1 (stereo not given)
Activity [1]: 50.2%
Kr [2]: 5.2 mmol/min

O=[N+]([O-])c1ccc(OS(=O)(=O)c2ccccc2)c(Cl)c1
Activity [1]: 28.1%
Kr [2]: 9.3 mmol/min

O=[N+]([O-])c1ccc(NS(=O)(=O)c2ccc(Cl)cc2)cc1
Activity [1]: 24.6%
Kr [2]: 10.6 mmol/min

COc1ccc(C(=O)CSS(=O)(=O)c2ccccc2)cc1
Activity [1]: 50.2%
Kr [2]: 5.2 mmol/min

O=C1OCCN1CCCN1C(=O)c2ccccc2C1=O
Activity [1]: 29.7%
Kr [2]: 8.8 mmol/min

NC(=O)CCNCCSC(=O)c1ccccc1
Activity [1]: 114%
Kr [2]: 2.3 mmol/min

CC(=O)NC1=C(NCCO)C(=O)c2ccccc2C1=O
Activity [1]: 21.6%
Kr [2]: 12.1 mmol/min

O=C(O)CN(CCc1ccccc1)CCN(CC(=O)O)CC(=O)O
Activity [1]: 19.2%
Kr [2]: 13.6 mmol/min

Nc1ccc(S(=O)(=O)NCC(O)CO)cc1 (stereo not given)
Activity [1]: 20.9%
Kr [2]: 12.5 mmol/min

C[n+]1ccccc1C=NO
Kr [2]: 2.61 mmol/min
